From ChEMBL document CHEMBL1148531, “The discovery of new 11beta-hydroxysteroid dehydrogenase type 1 inhibitors by common feature pharmacophore modeling and virtual screening” (J Med Chem, 2006) come the findings set out here.

Chains of the proteins cited; added tags and fusions are not shown. Lines headed by an entry give the natural chain unless they say otherwise; changes in a name come on top.
UniProt P28845: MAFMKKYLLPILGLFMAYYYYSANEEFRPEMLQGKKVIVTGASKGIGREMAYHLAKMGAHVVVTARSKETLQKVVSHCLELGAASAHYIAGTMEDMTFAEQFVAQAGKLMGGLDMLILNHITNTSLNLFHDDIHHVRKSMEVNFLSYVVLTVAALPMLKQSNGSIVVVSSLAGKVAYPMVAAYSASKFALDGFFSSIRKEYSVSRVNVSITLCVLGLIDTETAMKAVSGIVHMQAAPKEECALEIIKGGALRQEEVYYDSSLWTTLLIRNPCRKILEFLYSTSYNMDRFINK

Molecules are shown by their SMILES.

Type in all cases: cell-based
Experiment [1] concerns the target T1, 11-beta-hydroxysteroid dehydrogenase type 2 (Homo sapiens, UniProt P80365).
T1 sequence (P80365 whole entry): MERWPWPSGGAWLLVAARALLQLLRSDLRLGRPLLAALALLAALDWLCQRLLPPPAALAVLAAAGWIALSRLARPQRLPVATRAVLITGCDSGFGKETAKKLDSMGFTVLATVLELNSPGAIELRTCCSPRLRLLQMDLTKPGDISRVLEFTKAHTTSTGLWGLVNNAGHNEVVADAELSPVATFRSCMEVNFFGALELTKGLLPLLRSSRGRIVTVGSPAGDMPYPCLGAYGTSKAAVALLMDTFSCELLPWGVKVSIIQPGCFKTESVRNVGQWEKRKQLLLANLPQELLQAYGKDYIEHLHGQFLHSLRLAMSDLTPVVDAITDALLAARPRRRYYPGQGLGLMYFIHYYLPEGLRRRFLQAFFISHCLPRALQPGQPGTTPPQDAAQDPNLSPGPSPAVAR
Description: Inhibition of human recombinant 11-beta-HSD2 expressed in HEK293 cells.

The target of experiment [2] is T2, 11-beta-hydroxysteroid dehydrogenase 1 (Homo sapiens, UniProt P28845). Put plainly: Inhibition of human recombinant 11-beta-HSD1 transfected in intact HEK293 cells. A digest of the protocol: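 HEK-293 cells cotransfected (calcium phosphate) with 11β-HSD1 and H6PDH plasmids, replated after 6 h at 30000 cells/well in steroid-free DMEM for 18 h. Inhibitor 50 nM–20 µM final with 200 nM radiolabeled cortisone, 90 min at 37 °C; stopped with excess unlabeled steroids in methanol, TLC, scintillation counting. Mean ± SD, at least four experiments.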

For experiment [3], the target named is T2, 11-beta-hydroxysteroid dehydrogenase 1. Description: Inhibition of human recombinant 11-beta-HSD1 expressed in HEK293 cells.

What is called IC50 is the concentration at which inhibition is half-maximal. In the case of `C[C@H]1C[C@@]2(C)CC[C@](C)(C(=O)N[C@H](Cc3ccccc3)C(=O)O)C[C@@]2(C)C2=CC(=O)[C@@H]3[C@@]4(C)CC[C@H](O)C(C)(C)[C@@H]4CC[C@@]3(C)[C@@]21C`, the results for the IC50 in experiment [1], in experiment [2] and in experiment [3] were 2350 nM, 12600 nM and 2810 nM, respectively.
